Literature values in US20260345598A1 (INTRA-CELLULAR THERAPIES, INC., priority 2023, published 2026).

Molecular target: D1 receptor
Conditions: read-out: D1 receptor affinity Ki; cited from earlier work

For `CN1CCN2c3c(cccc31)[C@@H]1CN(CCCC(=O)c3ccc(F)cc3)CC[C@@H]12` [Lumateperone, 4-((6bR,10aS)-3-methyl-2,3,6b,9,10,10a-hexahydro-1H-pyrido[3′,4′: 4,5]pyrrolo[1,2,3-de]quinoxalin-8 (7H)-yl)-1-(4-fluorophenyl)-1-butanone], the Ki is given as 52 nM.
